{"sequences": {"note": "By UniProt entry, the sequences of proteins in these tests, tags left out.", "UniProt P05107, whole entry, looked up": "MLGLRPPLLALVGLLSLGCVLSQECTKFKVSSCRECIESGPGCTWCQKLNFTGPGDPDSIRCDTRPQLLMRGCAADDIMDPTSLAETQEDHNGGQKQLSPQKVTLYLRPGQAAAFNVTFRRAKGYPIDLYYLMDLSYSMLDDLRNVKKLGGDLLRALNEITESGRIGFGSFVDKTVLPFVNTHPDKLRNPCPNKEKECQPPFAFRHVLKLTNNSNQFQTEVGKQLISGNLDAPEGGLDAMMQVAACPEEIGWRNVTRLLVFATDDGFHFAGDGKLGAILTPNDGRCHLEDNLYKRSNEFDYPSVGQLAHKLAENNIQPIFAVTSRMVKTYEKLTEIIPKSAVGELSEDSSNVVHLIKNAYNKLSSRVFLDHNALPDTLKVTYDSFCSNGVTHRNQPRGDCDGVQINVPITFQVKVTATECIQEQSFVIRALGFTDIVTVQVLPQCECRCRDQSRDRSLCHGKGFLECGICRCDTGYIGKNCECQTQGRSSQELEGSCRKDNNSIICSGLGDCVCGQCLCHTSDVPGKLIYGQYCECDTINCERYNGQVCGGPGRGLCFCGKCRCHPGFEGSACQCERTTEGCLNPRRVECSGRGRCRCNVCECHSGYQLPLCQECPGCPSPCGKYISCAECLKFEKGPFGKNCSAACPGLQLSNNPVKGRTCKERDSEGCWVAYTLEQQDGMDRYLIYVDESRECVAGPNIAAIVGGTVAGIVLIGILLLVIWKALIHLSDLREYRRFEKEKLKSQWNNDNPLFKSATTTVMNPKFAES"}, "source": "PubChem BioAssay AID1499", "about": "(Sanford-Burnham Center for Chemical Genomics, 2009)", "note": "The entries are a selection whose mix differs from that of the whole data set. The source made the active and inactive calls.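 The calls were made as follows: active = 10 µM primary screen giving 50% or more activity, confirmed by 40% or more on retest at that dose; inactive = the rest.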", "data": [{"target": "Integrin beta-2 (Homo sapiens) + Integrin alpha-M (Homo sapiens) (UniProt P05107+P11215)", "assay": "agonists of integrin CD11b/CD18-fibrinogen binding – K562 cells, luminescence, primary screen (AID 1499)", "conditions": "K562 CD11b/CD18 adhesion to fibrinogen, ATPlite luminescence; at 10 µM; hits give high values", "values": [{"smiles": "Cc1nc2ccc3ccccc3c2s1.O=[N+]([O-])c1cc([N+](=O)[O-])c(O)c([N+](=O)[O-])c1", "activation": "inactive: -1%"}, {"smiles": "Cc1cc(C)cc(OP(C)(=O)Nc2ccc(C)cc2C)c1", "note": "(stereo not given)", "activation": "inactive: 3.1%"}, {"smiles": "Cc1cc(C)cc(OP(C)(=O)Nc2ccccn2)c1", "note": "(stereo not given)", "activation": "inactive: -1.5%"}, {"smiles": "Cc1ccc(C)c(NP(C)(=O)Oc2ccccc2)c1", "note": "(stereo not given)", "activation": "inactive: 0.1%"}, {"smiles": "Cc1ccc(NP(C)(=O)Oc2ccccc2)c(C)c1", "note": "(stereo not given)", "activation": "inactive: -6.5%"}, {"smiles": "COc1ccccc1OP(C)(=O)Nc1ccc(C)cc1", "note": "(stereo not given)", "activation": "inactive: -2.6%"}, {"smiles": "COc1ccc(OP(C)(=O)Nc2cccc(F)c2)cc1", "note": "(stereo not given)", "activation": "inactive: 1.5%"}, {"smiles": "CP(=S)(Nn1cnnc1)Oc1ccccc1", "note": "(stereo not given)", "activation": "inactive: 1.9%"}, {"smiles": "Cc1cccc(C)c1OP(C)(=O)Nc1ccc(SC(F)(F)F)cc1", "note": "(stereo not given)", "activation": "inactive: -5.8%"}, {"smiles": "Cc1cc(C)cc(OP(C)(=O)Nc2ccc(SC(F)(F)F)cc2)c1", "note": "(stereo not given)", "activation": "inactive: 0.7%"}, {"smiles": "CP(=O)(NC(=O)Nc1ccccc1)Oc1ccccc1", "note": "(stereo not given)", "activation": "inactive: -1.1%"}, {"smiles": "CCOP(C)(=S)SCC(=O)NC(C)C(=O)O", "note": "(stereo not given)", "activation": "inactive: -4.1%"}, {"smiles": "CCOC(=O)c1ccc(NP(C)(=O)Oc2ccc(OC)cc2)cc1", "note": "(stereo not given)", "activation": "inactive: 3.1%"}, {"smiles": "CP(=O)(Nc1ccccn1)Oc1ccc(Cl)cc1", "note": "(stereo not given)", "activation": "inactive: -2%"}, {"smiles": "CCN(CC)CC(O)COC(=O)C(O)(c1ccccc1)C1CCCCC1", "note": "(stereo not given)", "activation": "inactive: -0.7%"}, {"smiles": "CP(=O)(Oc1ccccc1)N1CCOC1=O", "note": "(stereo not given)", "activation": "inactive: 0%"}, {"smiles": "COc1ccccc1OP(C)(=O)Nc1c(C)n(C)n(-c2ccccc2)c1=O", "note": "(stereo not given)", "activation": "inactive: 0%"}, {"smiles": "CC(C)(C)c1ccc(OP(C)(=O)O)cc1", "activation": "inactive: -3.5%"}, {"smiles": "CP(=O)(OC12CC3CC(CC(C3)C1)C2)OC12CC3CC(CC(C3)C1)C2", "activation": "inactive: -4.3%"}, {"smiles": "COc1ccc(OP(C)(=O)Nc2ccccc2Br)cc1", "note": "(stereo not given)", "activation": "inactive: 0%"}, {"smiles": "COc1ccccc1OP(C)(=O)Nc1ccc(C)c(C)c1", "note": "(stereo not given)", "activation": "inactive: -4.2%"}, {"smiles": "Cc1nc2ccc3ccccc3c2o1.O=[N+]([O-])c1cc([N+](=O)[O-])c(O)c([N+](=O)[O-])c1", "activation": "inactive: 0.2%"}, {"smiles": "CN(C)CCOC(=O)C(O)(c1ccccc1)C1CCCC1", "note": "(stereo not given)", "activation": "inactive: -1.3%"}, {"smiles": "COc1ccc(OP(C)(=O)Nc2ccccn2)cc1", "note": "(stereo not given)", "activation": "inactive: 3.7%"}, {"smiles": "CP(=O)(Nc1ccccn1)Oc1ccccc1", "note": "(stereo not given)", "activation": "inactive: 2.2%"}, {"smiles": "CP(=O)(Nc1ccccc1F)Oc1ccccc1", "note": "(stereo not given)", "activation": "inactive: 2.1%"}, {"smiles": "COc1ccc(OP(C)(=O)Nc2cccc(Br)c2)cc1", "note": "(stereo not given)", "activation": "inactive: -6.8%"}, {"smiles": "CN(C)CCOC(=O)C(O)(c1ccccc1)C1CCCCC1", "note": "(stereo not given)", "activation": "inactive: -2.1%"}, {"smiles": "CCOP(C)(=S)SCC(=O)NC(C)(CC)C(=O)O", "note": "(stereo not given)", "activation": "inactive: -1.3%"}, {"smiles": "Cc1ccccc1NP(C)(=O)Nc1ccccc1C", "activation": "inactive: 0.3%"}]}]}
